Test results taken from PubChem BioAssay AID651636 (Sanford-Burnham Center for Chemical Genomics, 2012).
Only a part is listed here, and it is no random draw. Calls of active or inactive are those of the source. No stated cut-off is given here; in the data, active means inhibition above about 38%; inactive means the rest.

Protein sequences, listed by entry. Tags and fused reporters are not part of them.
UniProt P32249, whole entry: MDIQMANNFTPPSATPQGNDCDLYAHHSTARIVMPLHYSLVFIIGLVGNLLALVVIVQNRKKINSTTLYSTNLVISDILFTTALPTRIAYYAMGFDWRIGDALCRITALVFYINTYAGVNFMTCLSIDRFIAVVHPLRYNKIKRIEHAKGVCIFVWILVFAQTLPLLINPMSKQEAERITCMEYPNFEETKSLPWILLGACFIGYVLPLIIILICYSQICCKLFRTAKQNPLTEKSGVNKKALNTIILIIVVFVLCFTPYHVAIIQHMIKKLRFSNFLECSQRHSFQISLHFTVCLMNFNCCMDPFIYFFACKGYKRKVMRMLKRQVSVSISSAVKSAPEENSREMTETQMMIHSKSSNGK

What follows are molecules tested against G-protein coupled receptor 183 (Homo sapiens) (UniProt P32249) (assay: blockers of oxysterol-driven EBI2 arrestin signaling – cell-based, luminescence, 7a,25-OHC stimulation, uHTS, primary screen (AID 651636;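 further: enzyme fragment complementation signal reports receptor beta-arrestin coupling in cells; 0% = agonist plus DMSO wells and 100% = wells without agonist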)). Settings: EBI2 beta-arrestin recruitment, 7a,25-OHC stimulated, at 5 µM, hits give high values.

Row | SMILES | inhibition
1 | COc1cc(C(=O)NCC2(N(C)C)CCCCC2)ccc1OC(F)F | inactive: -0.183%
2 | CCOC(=O)N1CCC(Nc2cccc(C)c2)CC1 | inactive: 2.3%
3 | O=c1[nH]c2ccccc2n1C1CCN(C(c2cccc3ccccc23)c2nnnn2C2CCCC2)CC1 (stereo not drawn) | inactive: 25%
4 | O=c1[nH]c2ccccc2n1C1CCN(C(c2ccccc2)c2nnnn2C2CCCCC2)CC1 (stereo not drawn) | inactive: 6.06%
5 | CCOC(=O)N1CCC(Nc2ccc(F)cc2)CC1 | inactive: 4.19%
6 | COc1ccc(NC2CCN(CCc3ccccc3)CC2)c(OC)c1 | inactive: -3.81%
7 | O=C(NCC1(N2CCCCC2)CCCCC1)c1ccc(F)cc1 | inactive: 1.71%
8 | CCCCOc1ccc(C(=O)NCC2(N3CCOCC3)CCCCC2)cc1 | inactive: 3.6%
9 | O=P1(N(CCCl)CCCl)SCCCS1 | inactive: 0.873%
10 | CCCCn1nnnc1C(c1cc2ccccc2o1)N1CCC(n2c(=O)[nH]c3ccccc32)CC1 (stereo not drawn) | inactive: 13.7%
11 | O=C1CCN(Cc2ccccc2)CC1 | inactive: -10.2%
12 | CC(C)(C)n1nnnc1C(c1ccccc1)N1CCC(n2c(=O)[nH]c3ccccc32)CC1 (stereo not drawn) | inactive: 11.5%
13 | CCOc1ccc(C)cc1CN(CCCl)CCCl | inactive: 12.5%
14 | COc1ccc(Cl)cc1C(=O)NCC1(N2CCOCC2)CCCCC1 | inactive: -0.55%
15 | O=c1[nH]c2ccccc2n1C1CCN(C(c2cc3ccccc3o2)c2nnnn2C2CCCCC2)CC1 (stereo not drawn) | inactive: 14.7%
16 | O=C(OC1CN2CCC1CC2)C1c2ccccc2Oc2ccccc21 (stereo not drawn) | inactive: 9%
17 | N#CC1(Nc2ccccc2)CCN(Cc2ccccc2)CC1 | inactive: 2.56%
18 | O=C(NCC1(N2CCCCC2)CCCCC1)c1ccc(Cl)s1 | inactive: 1.24%
19 | CCCCn1nnnc1C(c1ccc(OC)cc1)N1CCC(n2c(=O)[nH]c3ccccc32)CC1 (stereo not drawn) | inactive: 5.03%
20 | CCOC(=O)N1CCC(Nc2ccc(OC)cc2)CC1 | inactive: -6.3%
21 | Cc1cc(C)cc(N(C(=O)c2ccccc2)C2CCN(C(=O)OC(C)(C)C)CC2)c1 | inactive: -9.59%
22 | O=c1[nH]c2ccccc2n1C1CCN(C(c2ccccc2OC(F)(F)F)c2nnnn2C2CCCCC2)CC1 (stereo not drawn) | inactive: 17.7%

Row | SMILES | inhibition
23 | O=C(NCC1(N2CCCCC2)CCCCC1)c1ccc(Cl)nc1 | inactive: -7.85%
24 | O=C(NCC1(N2CCOCC2)CCCCC1)c1cc2ccccc2o1 | inactive: 9.24%
25 | Cc1cccc(NC2(C#N)CCN(Cc3ccccc3)CC2)c1 | inactive: 5.27%
26 | CSc1ccccc1C(=O)NCC1(N2CCCCC2)CCCCC1 | inactive: -4.22%
27 | CCC(c1nnnn1C1CCCC1)N1CCC(n2c(=O)[nH]c3ccccc32)CC1 (stereo not drawn) | inactive: 6.55%
28 | COc1ccc(C(=O)NCC2(N3CCCCC3)CCCCC2)c(OC)c1OC | inactive: -1.83%
29 | CC(C)(C)OC(=O)N1CCC(N(C(=O)c2ccccc2)c2ccc(F)cc2)CC1 | inactive: 1.79%
30 | COc1ccc(C(=O)NCC2(N3CCCCC3)CCCCC2)cc1 | inactive: -6.02%
31 | CCCCn1nnnc1C(c1cccs1)N1CCC(n2c(=O)[nH]c3ccccc32)CC1 (stereo not drawn) | inactive: -0.635%
32 | CCCCn1nnnc1C(CC)N1CCC(n2c(=O)[nH]c3ccccc32)CC1 (stereo not drawn) | inactive: 3.79%
33 | O=C(NCC1(N2CCCCC2)CCCCC1)c1cccs1 | inactive: -0.475%
34 | O=C(NCC1(N2CCCCC2)CCCCC1)c1ccc(=O)[nH]c1 | inactive: -4.75%
35 | COc1ccc(C(c2nnnn2C2CCCC2)N2CCC(n3c(=O)[nH]c4ccccc43)CC2)cc1 (stereo not drawn) | inactive: 13.2%
36 | CCCOc1ccc(C(=O)NCC2(N(C)C)CCCCC2)cc1OC | inactive: -6.07%
37 | Cc1ccc(C(=O)NCC2(N(C)C)CCCCC2)o1 | inactive: -3.93%
38 | O=C(NCC1(N2CCCCC2)CCCCC1)c1cncc(Br)c1 | inactive: -13.2%
39 | CN1CCC(Nc2cccc(F)c2)CC1 | inactive: -4.21%
40 | CCC(c1nnnn1C(C)(C)C)N1CCC(n2c(=O)[nH]c3ccccc32)CC1 (stereo not drawn) | inactive: 2.13%
41 | O=C(NCC1(N2CCOCC2)CCCCC1)c1cc(F)c(F)cc1Cl | inactive: -0.832%
42 | COc1cc(OC)c(C(=O)NCC2(N(C)C)CCCCC2)cc1OC | inactive: -21.6%
43 | CCCCn1nnnc1C(c1ccnc2ccccc12)N1CCC(n2c(=O)[nH]c3ccccc32)CC1 (stereo not drawn) | inactive: 7.19%
44 | CC(C)c1ccc(NC2CCN(C(=O)OC(C)(C)C)CC2)cc1 | inactive: 4.38%

Row | SMILES | inhibition
45 | CCCCn1nnnc1C(c1ccccc1OC(F)(F)F)N1CCC(n2c(=O)[nH]c3ccccc32)CC1 (stereo not drawn) | inactive: 28.7%
46 | CN(C)c1cccc(C(=O)NCC2(N3CCCCC3)CCCCC2)c1 | inactive: 0.688%
47 | COc1ccc(CN(CCCl)CCCl)cc1Cl | inactive: -15.1%
48 | O=C(NCC1(N2CCOCC2)CCCCC1)c1cc(=O)[nH]c2ccccc12 | inactive: -1.99%
49 | COc1cc(C(=O)NCC2(N3CCCCC3)CCCCC2)ccc1OC(F)F | inactive: -7.1%
50 | CCCCn1nnnc1C(c1cccc2ccccc12)N1CCC(n2c(=O)[nH]c3ccccc32)CC1 (stereo not drawn) | inactive: 24.1%
51 | COc1ccc(NC2CCN(C(=O)OC(C)(C)C)CC2)cc1 | inactive: 6.6%
52 | CC(C)c1ccc(C(=O)NCC2(N3CCOCC3)CCCCC2)cc1 | inactive: -6.42%
53 | CN1CCN(CCOC(=O)C(O)(c2ccccc2)c2ccccc2)CC1 | inactive: -9.42%
54 | O=C(NCC1(N2CCCCC2)CCCCC1)c1cccc(C(F)(F)F)c1 | inactive: -7.25%
55 | N#CC1(Nc2ccccc2)CCN(CCc2ccccc2)CC1 | inactive: -9.49%
56 | O=c1[nH]c2ccccc2n1C1CCN(C(c2ccccc2OC(F)(F)F)c2nnnn2C2CCCC2)CC1 (stereo not drawn) | inactive: 16.9%
57 | CCN1CCC(Nc2ccc(Cl)cc2)CC1 | inactive: 6.7%
58 | CSc1ccc(C(=O)NCC2(N3CCOCC3)CCCCC2)cc1 | inactive: -8.43%
59 | O=C(NCC1(N2CCCCC2)CCCCC1)c1cccc([N+](=O)[O-])c1 | inactive: 1.97%
60 | O=C(NCC1(N2CCCCC2)CCCCC1)c1ccc(OC(F)F)cc1 | inactive: -2.77%
61 | CC(C)(C)n1nnnc1C(c1ccccc1OC(F)(F)F)N1CCC(n2c(=O)[nH]c3ccccc32)CC1 (stereo not drawn) | inactive: 8.84%
62 | CC(C)(C)n1nnnc1C(c1cccc2ccccc12)N1CCC(n2c(=O)[nH]c3ccccc32)CC1 (stereo not drawn) | inactive: 27.4%
63 | CN(C)C1(CNC(=O)c2cccc(C#N)c2)CCCCC1 | inactive: 0.048%
64 | CCCN1CCC(Nc2cc(OC)cc(OC)c2)CC1 | inactive: 6.91%
65 | O=c1[nH]c2ccccc2n1C1CCN(C(c2ccccc2)c2nnnn2C2CCCC2)CC1 (stereo not drawn) | inactive: 13.1%
66 | Cc1cc(N(CCCl)CCCl)ccc1C=O | inactive: 26.7%

Row | SMILES | inhibition
67 | c1ccc(CN2CCC(Nc3ccccc3)CC2)cc1 | inactive: -2.22%
68 | N#Cc1ccc(C(=O)NCC2(N3CCCCC3)CCCCC2)cc1 | inactive: -1.58%
69 | CC(C)(C)OC(=O)N1CCC(N(C(=O)c2ccccc2)c2ccc(Cl)cc2)CC1 | inactive: 8.12%
70 | O=c1[nH]c2ccccc2n1C1CCN(C(c2cccs2)c2nnnn2C2CCCC2)CC1 (stereo not drawn) | inactive: 14.2%
71 | O=C(OC1CN2CCC1CC2)C1c2ccccc2C=Cc2ccccc21 (stereo not drawn) | inactive: 0.252%
72 | CCCCn1nnnc1C(c1cccc(OC)c1OC)N1CCC(n2c(=O)[nH]c3ccccc32)CC1 (stereo not drawn) | inactive: 2.41%
73 | COc1cccc(C(c2nnnn2C(C)(C)C)N2CCC(n3c(=O)[nH]c4ccccc43)CC2)c1OC (stereo not drawn) | inactive: 5.16%
74 | CCOC(=O)N1CCC(Nc2ccc(C)cc2)CC1 | inactive: -5.96%
75 | N/C(=N\O)c1c(N)no[n+]1[O-] | inactive: -9.76%
76 | O=c1[nH]c2ccccc2n1C1CCN(C(c2cccs2)c2nnnn2C2CCCCC2)CC1 (stereo not drawn) | inactive: -3.49%
77 | O=c1[nH]c2ccccc2n1C1CCN(C(c2ccnc3ccccc23)c2nnnn2C2CCCC2)CC1 (stereo not drawn) | inactive: 15.5%
78 | COc1ccc(C(=O)NCC2(N3CCOCC3)CCCCC2)cc1OC | inactive: 6.77%
79 | COc1cc(C(=O)NCC2(N3CCOCC3)CCCCC2)cc(OC)c1C | inactive: 7.8%
80 | CCCCn1nnnc1C(c1ccccc1)N1CCC(n2c(=O)[nH]c3ccccc32)CC1 (stereo not drawn) | inactive: 13.5%
81 | O=C(NCC1(N2CCOCC2)CCCCC1)c1cc(Br)ccc1Cl | inactive: 0.282%
82 | CN1CCC(Nc2ccc(Cl)cc2)CC1 | inactive: 3.26%
83 | COc1cccc(C(=O)N(c2cc(C)cc(C)c2)C2CCN(C(=O)OC(C)(C)C)CC2)c1 | inactive: 11.8%
84 | COc1cccc(C(c2nnnn2C2CCCC2)N2CCC(n3c(=O)[nH]c4ccccc43)CC2)c1OC (stereo not drawn) | inactive: 20.9%
85 | COc1cc(OC)cc(C(=O)NCC2(N3CCOCC3)CCCCC2)c1 | inactive: -0.842%
86 | CCC(CO)(C(=O)OC1CN2CCC1CC2)c1ccccc1 (stereo not drawn) | inactive: -6.33%
87 | NN(c1ccccc1)C1CCN(CCc2ccccc2)CC1 | inactive: -9.86%
88 | O=C(O)C1(Nc2ccccc2)CCN(Cc2ccccc2)CC1 | inactive: -0.959%

Row | SMILES | inhibition
89 | CC(C)(C)OC(=O)N1CCC(Nc2ccccc2)CC1 | inactive: 1.45%
90 | CCCOc1ccc(C(=O)NCC2(N(C)C)CCCCC2)cc1 | inactive: -2.16%
91 | O=c1[nH]c2ccccc2n1C1CCN(C(c2cc3ccccc3o2)c2nnnn2C2CCCC2)CC1 (stereo not drawn) | inactive: 20.1%
92 | CN1CCC(Nc2ccc(F)c(Cl)c2)CC1 | inactive: -5%
93 | CCOc1ncccc1C(=O)NCC1(N2CCOCC2)CCCCC1 | inactive: 1.06%
94 | Cn1c(=O)[nH]cc(N(CCCl)CCCl)c1=O | inactive: -3.58%
95 | CN(C)c1ccc(C(=O)NCC2(N3CCCCC3)CCCCC2)cc1 | inactive: -4.52%
96 | O=C(NCC1(N2CCCCC2)CCCCC1)c1ccco1 | inactive: -6.42%
97 | CC(C)(C)n1nnnc1C(c1ccnc2ccccc12)N1CCC(n2c(=O)[nH]c3ccccc32)CC1 (stereo not drawn) | inactive: 24.2%
98 | COc1ccc(C(c2nnnn2C2CCCCC2)N2CCC(n3c(=O)[nH]c4ccccc43)CC2)cc1 (stereo not drawn) | inactive: 17.6%
99 | CCN1CCC(Nc2cccc(F)c2)CC1 | inactive: 5.81%
100 | Cc1ccccc1NC1(C#N)CCN(Cc2ccccc2)CC1 | inactive: -3.15%
101 | Fc1ccccc1NC1CCN(Cc2ccccc2)CC1 | inactive: -8.29%
102 | Cc1ccc(C(=O)NCC2(N3CCCCC3)CCCCC2)o1 | inactive: 7.26%
103 | Cc1ccc(NC2(C#N)CCN(Cc3ccccc3)CC2)cc1 | inactive: -1.82%
104 | CCC(c1nnnn1C1CCCCC1)N1CCC(n2c(=O)[nH]c3ccccc32)CC1 (stereo not drawn) | inactive: 2.16%
105 | CC(=O)N(c1ccccc1)C1CCNCC1 | inactive: 5.28%
106 | COc1cccc(C(c2nnnn2C2CCCCC2)N2CCC(n3c(=O)[nH]c4ccccc43)CC2)c1OC (stereo not drawn) | inactive: 6.62%
107 | O=c1[nH]c2ccccc2n1C1CCN(C(c2ccnc3ccccc23)c2nnnn2C2CCCCC2)CC1 (stereo not drawn) | inactive: 11.6%
108 | COc1cc(OC)cc(C(=O)NCC2(N3CCCCC3)CCCCC2)c1 | inactive: 1.5%
